Experimental data from publication PMC4837355, “Receptor residence time trumps drug-likeness and oral bioavailability in determining efficacy of complement C5a antagonists” (Scientific Reports, 2016).

Conditions: rat, in vivo, po

## CC(=O)N[C@@H](Cc1ccccc1)C(=O)N[C@H]1CCCNC(=O)[C@H](CCCNC(=N)N)NC(=O)[C@H](Cc2c[nH]c3ccccc23)NC(=O)[C@@H](CC2CCCCC2)NC(=O)[C@@H]2CCCN2C1=O [3D53, Ac-Phe-[Orn-Pro-D-Cha-Trp-Arg]]
  bioavailability: 2.4%
